Assay results published in ChEMBL document CHEMBL1136688, “Synthesis and SAR of aminoalkoxy-biaryl-4-carboxamides: novel and selective histamine H3 receptor antagonists” (Bioorg Med Chem Lett, 2003).

The chains behind the UniProt entries cited, without tags or fusion partners. Where a name states a change or a piece, a line headed by the entry shows the natural chain unless it says otherwise.
UniProt Q9QYN8: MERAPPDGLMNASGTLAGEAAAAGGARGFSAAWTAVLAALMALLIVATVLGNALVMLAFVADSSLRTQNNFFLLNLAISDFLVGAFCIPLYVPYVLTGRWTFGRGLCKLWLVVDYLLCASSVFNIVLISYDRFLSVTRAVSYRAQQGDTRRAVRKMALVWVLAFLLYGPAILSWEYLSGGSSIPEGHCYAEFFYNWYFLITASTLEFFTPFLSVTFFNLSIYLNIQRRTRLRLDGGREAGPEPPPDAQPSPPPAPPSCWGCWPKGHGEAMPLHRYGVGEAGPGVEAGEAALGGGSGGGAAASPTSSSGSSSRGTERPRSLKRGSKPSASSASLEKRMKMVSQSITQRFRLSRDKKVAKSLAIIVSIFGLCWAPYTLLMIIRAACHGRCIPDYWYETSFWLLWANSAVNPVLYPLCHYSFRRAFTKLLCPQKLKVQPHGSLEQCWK

Target: Histamine H3 receptor (Rattus norvegicus, UniProt Q9QYN8)
Test: Binding affinity towards rat cortical H3 receptor

C[C@H]1CC[C@H](C)N1CCCOc1ccc(-c2ccc(C(=O)N3CCOCC3)cc2)cc1 [A-349,821]
Ki: 1.66 nM
